Results on 59 compounds are retold here after PubChem BioAssay AID651768 (National Center for Advancing Translational Sciences (NCATS), 2012).

By UniProt entry, the sequences of proteins in these tests, tags left out.
UniProt Q14191, whole entry: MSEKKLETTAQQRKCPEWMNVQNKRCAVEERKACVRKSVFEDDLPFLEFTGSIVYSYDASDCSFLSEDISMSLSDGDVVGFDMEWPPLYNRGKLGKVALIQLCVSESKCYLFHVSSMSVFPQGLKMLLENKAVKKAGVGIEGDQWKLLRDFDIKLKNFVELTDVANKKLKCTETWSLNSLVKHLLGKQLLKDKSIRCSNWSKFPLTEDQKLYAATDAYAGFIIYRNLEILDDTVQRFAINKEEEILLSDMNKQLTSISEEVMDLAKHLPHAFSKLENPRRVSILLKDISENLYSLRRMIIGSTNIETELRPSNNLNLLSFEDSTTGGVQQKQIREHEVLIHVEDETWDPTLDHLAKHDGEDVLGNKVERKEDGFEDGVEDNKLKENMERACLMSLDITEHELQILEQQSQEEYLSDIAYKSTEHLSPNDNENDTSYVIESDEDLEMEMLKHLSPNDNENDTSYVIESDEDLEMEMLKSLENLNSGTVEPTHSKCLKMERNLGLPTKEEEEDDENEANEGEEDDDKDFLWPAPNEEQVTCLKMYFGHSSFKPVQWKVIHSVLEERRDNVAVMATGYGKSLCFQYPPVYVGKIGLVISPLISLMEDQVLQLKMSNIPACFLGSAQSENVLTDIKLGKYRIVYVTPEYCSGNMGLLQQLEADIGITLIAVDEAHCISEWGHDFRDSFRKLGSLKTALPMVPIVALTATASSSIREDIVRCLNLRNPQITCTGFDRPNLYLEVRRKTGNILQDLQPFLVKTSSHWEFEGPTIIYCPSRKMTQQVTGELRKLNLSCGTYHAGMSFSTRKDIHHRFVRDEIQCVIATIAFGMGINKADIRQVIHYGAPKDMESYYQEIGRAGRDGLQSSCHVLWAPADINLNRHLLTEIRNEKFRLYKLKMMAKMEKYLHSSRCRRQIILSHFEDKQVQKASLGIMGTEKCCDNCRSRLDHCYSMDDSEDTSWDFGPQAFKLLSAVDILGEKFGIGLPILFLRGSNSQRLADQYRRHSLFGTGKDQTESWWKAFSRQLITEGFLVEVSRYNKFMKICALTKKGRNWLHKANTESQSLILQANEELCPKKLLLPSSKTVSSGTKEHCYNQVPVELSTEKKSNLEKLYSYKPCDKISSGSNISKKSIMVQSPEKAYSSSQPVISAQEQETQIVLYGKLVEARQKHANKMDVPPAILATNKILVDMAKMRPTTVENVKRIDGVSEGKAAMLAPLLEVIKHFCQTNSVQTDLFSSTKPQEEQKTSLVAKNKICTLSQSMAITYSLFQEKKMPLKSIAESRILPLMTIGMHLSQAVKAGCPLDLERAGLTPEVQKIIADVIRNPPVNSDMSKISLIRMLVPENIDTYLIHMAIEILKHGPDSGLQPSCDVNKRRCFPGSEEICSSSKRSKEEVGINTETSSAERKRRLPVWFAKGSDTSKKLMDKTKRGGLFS

Only a part is listed here, and it is no random draw. Active and inactive are the calls of the source. The call rests on the fitted dose curve; in most records, active means well fitted inhibition curve with a large enough effect; inconclusive means small, poorly fitted or top-dose-only effect; inactive means no such curve, though single readings can be large or run the other way.
On the % scale 0 is the no-effect control and ±100 the full control effect.

The assay has as its target Bifunctional 3'-5' exonuclease/ATP-dependent helicase WRN (Homo sapiens) (UniProt Q14191). The experiment in a line: qHTS for Inhibitors of WRN Helicase. Further: nearly all actives have a fitted effect of over 55% in size. Particulars: WRN helicase unwinding, fluorescent forked duplex, kinetic; at 114 µM (top of the series) unless noted. From the text: Inhibition of DNA repair is proposed as a strategy for combating cancer. Synthetic lethality is an approach that exploits preexisting DNA repair deficiencies in certain tumors to develop inhibitors of DNA repair pathways that compensate for the tumor-associated DNA repair deficiency. Because helicases play critical roles in the DNA damage response and in DNA repair, particularly in actively dividing and replicating cells, characterization of synthetic lethal relationships of DNA helicases may be of value in developing improved anticancer treatment strategies; moreover, small molecules that specifically target a given DNA helicase may be useful for understanding its role in cellular nucleic acid metabolism. The goal of this project is to identify small molecule, non-covalent chemical inhibitors of the Werner syndrome (WS) helicase (WRN), which plays an important role in cell proliferation, the replication stress response, and DNA repair. […] The WRN gene product that is defective in the chromosomal instability disorder has DNA helicase and exonuclease activities and interacts with a number of nuclear proteins to maintain genomic stability. We will employ an optimized high-throughput screening assay that utilizes a fluorescence intensity modulation scheme with a fluorophore and quencher positioned near one another within a duplex deoxyoligonucleotide that contains a single forked structure. After a high-throughput screen of the ~350,000-member Molecular Libraries Small Molecule Repository (MLSMR) collection, followed by data analysis and hit selection, a panel of confirmatory, as well as secondary and ternary, assays will be employed to identify high-confidence WRN inhibitors. Structure-activity relationships will be investigated for the top candidate inhibitor series through medchem expansion. These are the results of the primary screening campaign against the MLSMR. NIH Chemical Genomics Center [NCGC] NIH Molecular Libraries Probe Centers Network [MLPCN] MLPCN Grant: MH096530 Assay Submitter (PI): Robert Brosh, National Institute of Aging
Three muL of reagents (buffer in columns 3 and 4 as negative controls; WRN at 20 nM final concentration in columns 1 and 2 as positive controls; columns 5-48 as test reactions) will be dispensed into a 1536-well Greiner black plate via solenoid-valve based nanoliter dispensers. Compounds (23 nL each in columns 5-48) and control (23 nL each in column 2 as dose-response) will be transferred via a Kalypsys pintool equipped with a 1536-pin array. Plates will be incubated for 15 min at room temperature, and then 1 µL of substrate (100 nM forked duplex oligonucleotide and 2 mM ATP final concentrations) will be added to start reaction, and plate will be transferred into a ViewLux high-throughput CCD imager where reaction progress is measured in kinetic mode using standard red-fluorescence optics (excitation filter 525 nm, emission filter 598 nm).
On to `CCOC(=O)C(CC)C1=NC(C)(C)Cc2ccccc21.O=[N+]([O-])c1cc([N+](=O)[O-])c(O)c([N+](=O)[O-])c1` (centres undefined), for which the activity change, negative = inhibition was inactive: -0.359%. Under `N#Cc1ccc(C(=O)NCC2(N3CCCCC3)CCCCC2)cc1` stands inactive: -5.57%; under `CC(C)(C)OC(=O)N1CCC(N(C(=O)c2ccccc2)c2ccc(Cl)cc2)CC1`, inactive: -6.48%; under `CC(C)(C)n1nnnc1C(c1cccc2ccccc12)N1CCC(n2c(=O)[nH]c3ccccc32)CC1` (centres undefined), inactive: -2.85%. Regarding `CN(C)C1(CNC(=O)c2cccc(C#N)c2)CCCCC1`, the activity change, negative = inhibition is inactive: -8.43%. Regarding `Cc1cc(N(CCCl)CCCl)ccc1C=O`, the activity change, negative = inhibition was inactive: -1.93%. The value for `CCCN1CCC(Nc2cc(OC)cc(OC)c2)CC1` was inactive: -4.99%; that for `O=c1[nH]c2ccccc2n1C1CCN(C(c2ccccc2)c2nnnn2C2CCCC2)CC1` (centres undefined) was inactive: -7.09%; that for `c1ccc(CN2CCC(Nc3ccccc3)CC2)cc1` was inactive: 5.45%. The value for `O=c1[nH]c2ccccc2n1C1CCN(C(c2cccs2)c2nnnn2C2CCCCC2)CC1` (centres undefined) was inactive: -7.59%; that for `O=c1[nH]c2ccccc2n1C1CCN(C(c2ccnc3ccccc23)c2nnnn2C2CCCC2)CC1` (centres undefined) was inactive: -6.53%; that for `COc1ccc(C(=O)NCC2(N3CCOCC3)CCCCC2)cc1OC` was inactive: 4.05%. Under `COc1cc(C(=O)NCC2(N3CCOCC3)CCCCC2)cc(OC)c1C` stands inactive: -14.5%; under `CCCCn1nnnc1C(c1ccccc1)N1CCC(n2c(=O)[nH]c3ccccc32)CC1` (centres undefined), inactive: -0.973%; under `O=C(NCC1(N2CCOCC2)CCCCC1)c1cc(Br)ccc1Cl`, inactive: -3.61%. `O=C(O)c1cccc(Nc2c([N+](=O)[O-])cc([N+](=O)[O-])cc2[N+](=O)[O-])c1`: the activity change, negative = inhibition was inactive: 1.9%. Under `O=c1[nH]c2ccccc2n1C1CCN(C(c2cccs2)c2nnnn2C2CCCC2)CC1` (centres undefined) stands inactive: -6.11%; under `CCc1cc(C(=O)NCC2(N3CCCCC3)CCCCC2)sc1C`, inactive: 1.64%. The value for `O=C(OC1CN2CCC1CC2)C1c2ccccc2C=Cc2ccccc21` (centres undefined) was inactive: 8.82%; that for `CCCCn1nnnc1C(c1cccc(OC)c1OC)N1CCC(n2c(=O)[nH]c3ccccc32)CC1` (centres undefined) was inactive: -3.33%. Turning to `CCOC(=O)N1CCC(Nc2ccc(C)cc2)CC1`, the activity change, negative = inhibition is inactive: -23.7%. The value for `COc1cccc(C(c2nnnn2C(C)(C)C)N2CCC(n3c(=O)[nH]c4ccccc43)CC2)c1OC` (centres undefined) was inactive: -7.5%. As for `N/C(=N\O)c1c(N)no[n+]1[O-]`, the activity change, negative = inhibition is inactive: 4.29%.

Consider `NN(c1ccccc1)C1CCN(CCc2ccccc2)CC1`, for which the activity change, negative = inhibition is inactive: 4.02%. Regarding `O=C(O)C1(Nc2ccccc2)CCN(Cc2ccccc2)CC1`, the activity change, negative = inhibition was inactive: -0.164%.

`CC(C)(C)OC(=O)N1CCC(Nc2ccccc2)CC1`: the activity change, negative = inhibition was inactive: -1.15%.

As to `O=c1[nH]c2ccccc2n1C1CCN(C(c2cc3ccccc3o2)c2nnnn2C2CCCC2)CC1` (centres undefined), the activity change, negative = inhibition was inactive: -3.87%. As for `CCCOc1ccc(C(=O)NCC2(N(C)C)CCCCC2)cc1`, the activity change, negative = inhibition is inactive: -13.9% [at 57.1 µM]. The value for `CN1CCC(Nc2ccc(F)c(Cl)c2)CC1` was inactive: -33.4%; that for `CCOc1ncccc1C(=O)NCC1(N2CCOCC2)CCCCC1` was inactive: 3.13%; that for `CN1CCC(Nc2ccc(Cl)cc2)CC1` was inactive: 0.944%. Under `COc1cccc(C(=O)N(c2cc(C)cc(C)c2)C2CCN(C(=O)OC(C)(C)C)CC2)c1` stands inactive: -14.6%. In the case of `COc1cccc(C(c2nnnn2C2CCCC2)N2CCC(n3c(=O)[nH]c4ccccc43)CC2)c1OC` (centres undefined), the activity change, negative = inhibition was inactive: -5.06%.

As for `COc1cc(OC)cc(C(=O)NCC2(N3CCOCC3)CCCCC2)c1`, the activity change, negative = inhibition was inactive: -6.51%. Under `CCC(CO)(C(=O)OC1CN2CCC1CC2)c1ccccc1` (centres undefined) stands inactive: 0.988%; under `Fc1ccccc1NC1CCN(Cc2ccccc2)CC1`, inactive: 0.0313%. In the case of `Cc1ccc(Nc2c([N+](=O)[O-])cc([N+](=O)[O-])cc2[N+](=O)[O-])cc1`, the activity change, negative = inhibition is inactive: -3.99%.

As to `Cc1ccc(C(=O)NCC2(N3CCCCC3)CCCCC2)o1`, the activity change, negative = inhibition was inactive: -5.41%. The value for `Cc1ccc(NC2(C#N)CCN(Cc3ccccc3)CC2)cc1` was inactive: -7.36%; that for `CCC(c1nnnn1C1CCCCC1)N1CCC(n2c(=O)[nH]c3ccccc32)CC1` (centres undefined) was inactive: -8.77%; that for `COc1cccc(C(c2nnnn2C2CCCCC2)N2CCC(n3c(=O)[nH]c4ccccc43)CC2)c1OC` (centres undefined) was inactive: -6.12%. In the case of `CC(=O)N(c1ccccc1)C1CCNCC1`, the activity change, negative = inhibition was inactive: -0.0198%. As for `COc1cc(OC)cc(C(=O)NCC2(N3CCCCC3)CCCCC2)c1`, the activity change, negative = inhibition was inactive: -0.0938%. The value for `O=c1[nH]c2ccccc2n1C1CCN(C(c2ccnc3ccccc23)c2nnnn2C2CCCCC2)CC1` (centres undefined) was inactive: 1.79%. Under `CN(C)c1ccc(C(=O)NCC2(N3CCCCC3)CCCCC2)cc1` stands inactive: -0.721%; under `Cn1c(=O)[nH]cc(N(CCCl)CCCl)c1=O`, inactive: -10.7%. On to `O=C(NCC1(N2CCCCC2)CCCCC1)c1ccco1`, for which the activity change, negative = inhibition was inactive: 11.5%. Under `CCN1CCC(Nc2cccc(F)c2)CC1` stands inactive: -3.85%. For the compound `COc1ccc(C(c2nnnn2C2CCCCC2)N2CCC(n3c(=O)[nH]c4ccccc43)CC2)cc1` (centres undefined), the activity change, negative = inhibition was inactive: -1.87%. Turning to `CC(C)(C)n1nnnc1C(c1ccnc2ccccc12)N1CCC(n2c(=O)[nH]c3ccccc32)CC1` (centres undefined), the activity change, negative = inhibition is inactive: 2.31%.

Regarding `Cc1ccccc1NC1(C#N)CCN(Cc2ccccc2)CC1`, the activity change, negative = inhibition is inactive: 10.3%. The value for `CCOC(=O)N1CCC(Nc2ccc(F)cc2)CC1` was inactive: 4.7%; that for `COc1ccc(NC2CCN(CCc3ccccc3)CC2)c(OC)c1` was inactive: -15.9%. The value for `CCCCOc1ccc(C(=O)NCC2(N3CCOCC3)CCCCC2)cc1` was inactive: -33.1%. The value for `O=P1(N(CCCl)CCCl)SCCCS1` was inactive: 0.565%. As for `CCCCn1nnnc1C(c1cc2ccccc2o1)N1CCC(n2c(=O)[nH]c3ccccc32)CC1` (centres undefined), the activity change, negative = inhibition is inactive: -7.58%. Take `O=C(NCC1(N2CCCCC2)CCCCC1)c1ccc(F)cc1`: the activity change, negative = inhibition is inactive: 4.96%. On to `O=C1CCN(Cc2ccccc2)CC1`, for which the activity change, negative = inhibition is inactive: -0.279%. In the case of `CC(C)(C)n1nnnc1C(c1ccccc1)N1CCC(n2c(=O)[nH]c3ccccc32)CC1` (centres undefined), the activity change, negative = inhibition is inactive: 2.9%.
